Test results reported in patent US9284362B2, “α/β-peptide mimics of Z-domain peptides” (Wisconsin Alumni Research Foundation, priority 2014, dated 2016).

Sequences of proteins named here, by UniProt entry; tags and fusion partners are left off. Residues count along the entry.
UniProt P01375, 77-233 limits assumed: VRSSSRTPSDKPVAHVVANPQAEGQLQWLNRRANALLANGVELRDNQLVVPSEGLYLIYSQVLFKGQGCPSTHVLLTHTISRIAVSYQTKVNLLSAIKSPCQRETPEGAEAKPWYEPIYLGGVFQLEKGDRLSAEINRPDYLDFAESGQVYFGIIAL
UniProt P15692, 27-191 isoform P15692-4: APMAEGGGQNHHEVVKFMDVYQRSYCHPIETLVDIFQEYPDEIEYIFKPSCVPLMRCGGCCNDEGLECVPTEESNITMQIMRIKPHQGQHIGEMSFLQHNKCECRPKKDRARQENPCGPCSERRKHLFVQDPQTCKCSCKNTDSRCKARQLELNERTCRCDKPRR

How the values were obtained:
[1] = target: T1, TNFα (binding to immobilized TNFR1) (Homo sapiens, UniProt P01375); assay: TNFα/TNFR competition ELISA; conditions: Table 14; read-out: TNFa-TNFR ELISA IC50
T1 construct: purchased R&D Systems 210-TA-020 (TNFα); 636-R1-025 (sTNF RI)

[2] = target: T2, VEGF (Homo sapiens, UniProt P15692); assay: VEGF competition fluorescence polarization (FP) assay; format: binding
T2 construct: made in house

Question: CC[C@H](C)[C@@H]1NC(=O)[C@@H](NC(=O)[C@H](Cc2c[nH]c3ccccc23)NC(=O)CNC(=O)[C@H](CC(C)C)NC(=O)[C@H]2CCC[C@@H]2N)CSSC[C@@H](C(=O)N[C@@H](Cc2c[nH]c3ccccc23)C(=O)N[C@H]2CCC[C@@H]2C(N)=O)NC(=O)C2CNCC2NC(=O)[C@H](CC(C)C)NC(=O)[C@H]([C@@H](C)CC)NC(=O)[C@H](CCCCN)NC(=O)C(C)(C)NC(=O)[C@H](CCCNC(=N)N)NC(=O)[C@H](Cc2ccccc2)NC(=O)[C@H](CCC(N)=O)NC(=O)[C@H](CCC(N)=O)NC(=O)[C@H](Cc2c[nH]cn2)NC(=O)[C@H](CC(N)=O)NC(=O)[C@H](CC(C)C)NC(=O)[C@H](CC(N)=O)NC(=O)[C@@H]2CCCN2C(=O)[C@H](CC(=O)O)NC(=O)[C@H]([C@@H](C)O)NC(=O)CNC(=O)C(C)(C)NC(=O)[C@H](CCC(=O)O)NC(=O)CNC1=O (stereo partly drawn) [α/β-TNFα-17, XLGWCIGEAGTDPNLNHQQFRAKILZCWX-NH2] was tested. Which IC50 [1] did it give?
Answer: 0.0062 µM

Question: For CCCC[C@H](NC(=O)[C@H](CCC(=O)O)NC(=O)[C@@H](N)CCCCN)C(=O)N[C@H]1CSSC[C@@H](C(=O)NCC(N)=O)NC(=O)[C@H](CC(=O)O)NC(=O)[C@H](CC(=O)O)NC(=O)[C@H]([C@@H](C)CC)NC(=O)[C@H]([C@@H](C)CC)NC(=O)[C@H](CO)NC(=O)[C@H](Cc2c[nH]c3ccccc23)NC(=O)[C@H]([C@@H](C)CC)NC(=O)[C@H](CCCCN)NC(=O)[C@H](C)NC(=O)[C@H](Cc2c[nH]cn2)NC(=O)[C@H](Cc2ccccc2)NC(=O)[C@H](CCC(N)=O)NC(=O)[C@H](CCC(N)=O)NC(=O)[C@H](CC(=O)O)NC(=O)[C@H](CC(N)=O)NC(=O)[C@H](CC(C)C)NC(=O)[C@H](CC(N)=O)NC(=O)[C@@H]2CCCN2C(=O)[C@H](CC(=O)O)NC(=O)[C@H](CC(C)C)NC(=O)[C@H](C)NC(=O)[C@H](C)NC(=O)[C@H](CCC(=O)O)NC(=O)[C@H]([C@@H](C)CC)NC(=O)[C@H](C)NC(=O)[C@H](CCCNC(=N)N)NC(=O)[C@H](C)NC(=O)[C@H](CC(N)=O)NC1=O [S1], which Ki [2] is on record?
Answer: 9.5 µM
